In the assay the target is Thymidine phosphorylase (Escherichia coli K-12, UniProt P07650). The assay is described as follows: Inhibitory concentration against thymidine phosphorylase of Escherichia coli. The method in brief: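 Recombinant E. coli TP (45 nM) with 0.13 mM 5-nitro-2'-deoxyuridine in 0.1 M phosphate pH 7.4, 25 °C, 200 μL. Initial rate followed at 355 nm. Used 5-7 inhibitor concentrations, with DMSO ≤0.5% where needed.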

Protein sequences, listed by entry. Tags and fused reporters are not part of them. Lines headed by an entry give the natural chain unless they say otherwise; changes in a name come on top.
UniProt P07650: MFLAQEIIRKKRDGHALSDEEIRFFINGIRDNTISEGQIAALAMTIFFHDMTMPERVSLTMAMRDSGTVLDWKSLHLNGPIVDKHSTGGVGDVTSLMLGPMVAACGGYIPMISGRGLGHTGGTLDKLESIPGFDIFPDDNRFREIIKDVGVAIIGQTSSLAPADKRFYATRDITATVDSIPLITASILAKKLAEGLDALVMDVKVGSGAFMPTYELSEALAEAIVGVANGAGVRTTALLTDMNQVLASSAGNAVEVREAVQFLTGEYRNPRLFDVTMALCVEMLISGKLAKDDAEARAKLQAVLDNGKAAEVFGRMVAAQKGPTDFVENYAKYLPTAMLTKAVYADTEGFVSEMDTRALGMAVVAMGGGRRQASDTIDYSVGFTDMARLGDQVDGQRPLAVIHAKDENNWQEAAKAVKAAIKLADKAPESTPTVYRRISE

As for `O=c1[nH]c(=O)c2cc[nH]c2[nH]1` [7-DEAZAXANTHINE], the half-maximal inhibitory concentration (IC50) was found to be 40 µM.

These data come from ChEMBL document CHEMBL1144404, “Aminoimidazolylmethyluracil analogues as potent inhibitors of thymidine phosphorylase and their bioreductive nitroimidazolyl prodrugs” (J Med Chem, 2005).
